# Values quoted from earlier work in patent US20220202845A1, “METHODS AND COMPOSITIONS FOR TREATING CANCER” (Fred Hutchinson Cancer Research Center, priority 2018, published 2022).
# Sequences of proteins named here, by UniProt entry; tags and fusion partners are left off.
# UniProt Q16539, whole entry: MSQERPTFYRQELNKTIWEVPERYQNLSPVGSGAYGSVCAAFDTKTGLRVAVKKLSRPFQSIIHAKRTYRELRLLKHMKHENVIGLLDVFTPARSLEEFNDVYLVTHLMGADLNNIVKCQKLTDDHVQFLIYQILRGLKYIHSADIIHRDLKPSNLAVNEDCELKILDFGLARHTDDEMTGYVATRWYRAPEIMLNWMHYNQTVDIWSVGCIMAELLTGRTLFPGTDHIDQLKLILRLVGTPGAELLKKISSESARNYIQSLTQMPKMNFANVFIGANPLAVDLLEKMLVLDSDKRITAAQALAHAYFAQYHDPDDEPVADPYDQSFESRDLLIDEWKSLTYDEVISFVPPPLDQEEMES
# Biological target: p38α (Homo sapiens, UniProt Q16539)
# Conditions: fold selective over p38β; cited from earlier work
structure (smiles),measurement,value
Cn1c(=O)c(Oc2ccc(F)cc2F)cc2cnc(NC(CCO)CCO)nc21 [Pamapimod],Selectivity for p38α over p38β,p38α34X selective over p38β
